For this test, the target named is PI3Kδ (Homo sapiens (Human), UniProt O00329). Kind of test: Biochemical inhibition of PI3K delta (ADP-Glo lipid kinase assay, Example 901). The settings on record: geometric mean of minimum three experiments unless footnoted. On the technique in general: ADP-Glo first removes unused ATP, then detects ADP through luciferase.

By UniProt entry, the sequences of proteins in these tests, tags left out. Where a name states a change or a piece, a line headed by the entry shows the natural chain unless it says otherwise.
UniProt O00329: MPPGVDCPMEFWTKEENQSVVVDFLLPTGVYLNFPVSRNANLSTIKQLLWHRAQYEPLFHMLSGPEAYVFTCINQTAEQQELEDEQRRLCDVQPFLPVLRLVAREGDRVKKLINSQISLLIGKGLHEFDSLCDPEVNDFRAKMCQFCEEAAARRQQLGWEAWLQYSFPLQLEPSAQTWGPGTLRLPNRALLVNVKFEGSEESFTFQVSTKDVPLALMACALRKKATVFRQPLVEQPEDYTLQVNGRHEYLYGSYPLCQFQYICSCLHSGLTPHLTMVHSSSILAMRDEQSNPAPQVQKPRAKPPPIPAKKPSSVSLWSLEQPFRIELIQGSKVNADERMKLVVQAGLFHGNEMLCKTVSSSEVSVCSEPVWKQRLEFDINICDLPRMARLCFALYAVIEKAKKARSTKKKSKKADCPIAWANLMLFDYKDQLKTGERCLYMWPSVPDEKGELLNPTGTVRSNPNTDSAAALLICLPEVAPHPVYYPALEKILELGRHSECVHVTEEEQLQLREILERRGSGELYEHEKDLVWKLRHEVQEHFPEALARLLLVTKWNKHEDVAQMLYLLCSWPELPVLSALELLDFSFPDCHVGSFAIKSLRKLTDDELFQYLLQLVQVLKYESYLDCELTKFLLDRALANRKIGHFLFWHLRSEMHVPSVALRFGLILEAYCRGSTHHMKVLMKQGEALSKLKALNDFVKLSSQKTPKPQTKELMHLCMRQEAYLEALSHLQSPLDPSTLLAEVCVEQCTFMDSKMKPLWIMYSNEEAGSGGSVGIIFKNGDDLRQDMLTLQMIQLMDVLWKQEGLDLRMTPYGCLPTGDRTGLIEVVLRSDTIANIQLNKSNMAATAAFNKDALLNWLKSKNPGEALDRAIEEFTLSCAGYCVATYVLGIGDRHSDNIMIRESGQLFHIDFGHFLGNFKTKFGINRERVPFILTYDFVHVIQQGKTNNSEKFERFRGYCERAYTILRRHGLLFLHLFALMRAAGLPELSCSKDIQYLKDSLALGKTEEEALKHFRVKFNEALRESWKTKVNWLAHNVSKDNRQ

From US10112932B2, “Benzoxazepin oxazolidinone compounds and methods of use” (Genentech, Inc., priority 2015, dated 2018) come the findings set out here.

As usually defined, the Ki is a dissociation constant, usually derived from enzyme kinetics or from competition with a known ligand. As to `CC(C)n1ncnc1-c1cn2c(n1)-c1ccc(OC(C(N)=O)C3CC3)cc1OCC2` (single isomer, unassigned) [549 (separated stereoisomer 1), reference compound], the affinity corresponds to a Ki of 9.41 nM.

Take `CC(C)n1ncnc1-c1cn2c(n1)-c1ccc(OC(C(N)=O)C3CC3)cc1OCC2` (single isomer, unassigned) [549 (separated stereoisomer 2), reference compound]: the Ki stood at 1.7 nM.
